Laboratory results published in PMC9544254 (Clinical and Experimental Allergy, 2022).

Chains of the proteins cited; added tags and fusions are not shown. Residues count along the entry.
UniProt P03952, 20-390 partner limits assumed: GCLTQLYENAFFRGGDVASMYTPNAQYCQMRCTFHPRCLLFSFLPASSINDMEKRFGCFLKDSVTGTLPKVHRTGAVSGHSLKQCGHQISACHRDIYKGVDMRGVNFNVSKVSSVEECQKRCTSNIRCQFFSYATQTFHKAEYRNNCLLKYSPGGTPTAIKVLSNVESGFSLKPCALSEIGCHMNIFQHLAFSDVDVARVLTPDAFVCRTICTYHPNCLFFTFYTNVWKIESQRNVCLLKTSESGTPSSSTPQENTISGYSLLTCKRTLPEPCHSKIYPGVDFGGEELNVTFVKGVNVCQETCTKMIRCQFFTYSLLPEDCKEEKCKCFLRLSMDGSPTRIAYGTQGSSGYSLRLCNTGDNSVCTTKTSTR
UniProt P03952, 391-638 limits assumed: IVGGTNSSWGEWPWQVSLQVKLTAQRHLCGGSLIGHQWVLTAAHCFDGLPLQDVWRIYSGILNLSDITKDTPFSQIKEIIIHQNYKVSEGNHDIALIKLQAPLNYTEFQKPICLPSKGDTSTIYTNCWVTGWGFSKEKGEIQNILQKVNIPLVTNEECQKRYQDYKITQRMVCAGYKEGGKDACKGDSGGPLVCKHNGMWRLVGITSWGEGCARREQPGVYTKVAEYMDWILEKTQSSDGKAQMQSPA

Target: T1, PKa (Homo sapiens, UniProt P03952)
T1 construct: host or cells: human pooled plasma, stimulated with dextran sulphate
Assay: DXS‐stimulated PKa enzyme activity in whole plasma
Format: biochemical
Details: for reduction of fluorescence generation compared with vehicle: 5 min pre‐incubation, 17 min assay, 6.25 µg/ml DXS
Description: PKa enzyme activity was measured in human pooled plasma (control plasma, Affinity Biologicals) using H‐D‐Pro‐Phe‐Arg‐AFC. The KKS in plasma was stimulated by the addition of dextran sulphate 500 kDa (DXS; Sigma‐Aldrich). PKa activity in the plasma was estimated based on the maximum rate of fluorescence increase. […] Percent plasma protein binding (PPB %) was determined using Rapid Equilibrium Dialysis (Pierce RED technology, ThermoFisher Scientific). Compounds were spiked into control plasma (final concentration 5 μM) and dialysed against phosphate buffer (pH 7.4) for 5 h at 37°C. Samples were analysed using liquid chromatography‐tandem mass spectrometry to quantify the fraction of unbound compound.

COCc1nn(Cc2ccc(Cn3ccccc3=O)cc2)cc1C(=O)NCc1nccc(OC)c1F [KVD900]
decrease of the rate of fluorescence generation in pre‐activated plasma (300 nM added 3.5 min after DXS‐stimulation (10 µg/ml)): 73.4%
reduction of fluorescence generation compared with vehicle (316 nM): > 99.7%
decrease of the rate of fluorescence generation in pre‐activated plasma (1000 nM added 3.5 min after DXS‐stimulation (10 µg/ml)): 88.9%
reduction of fluorescence generation compared with vehicle (1000 nM): > 99.7%
decrease of the rate of fluorescence generation in pre‐activated plasma (3000 nM added 3.5 min after DXS‐stimulation (10 µg/ml)): 93.0%
